Measurements from ChEMBL document CHEMBL3608251, “Probing the 'bipolar' nature of the carbonic anhydrase active site: aromatic sulfonamides containing 1,3-oxazol-5-yl moiety as picomolar inhibitors of cytosolic CA I and CA II isoforms” (Eur J Med Chem, 2015).

Assays:
Homo sapiens [1] = species on record: Homo sapiens; test: Selectivity ratio of Ki for human recombinant carbonic anhydrase 9 to Ki for human recombinant carbonic anhydrase 2
Homo sapiens [2] = species on record: Homo sapiens; test: Selectivity ratio of Ki for human recombinant carbonic anhydrase 1 to Ki for human recombinant carbonic anhydrase 2
Homo sapiens [3] = species on record: Homo sapiens; test: Selectivity ratio of Ki for human recombinant carbonic anhydrase 12 to Ki for human recombinant carbonic anhydrase 2
Carbonic anhydrase 2 = Carbonic anhydrase 2 (Homo sapiens, UniProt P00918); test: Inhibition of human recombinant carbonic anhydrase 2 preincubated for 15 mins by stopped flow CO2 hydration method

Compound: Cc1ncc(-c2ccc(S(N)(=O)=O)cc2)o1
- Ratio Ki (Homo sapiens [1]): 100
- Ratio Ki (Homo sapiens [2]): 100
- Ratio Ki (Homo sapiens [3]): 100
- Ki (Carbonic anhydrase 2): 0.05 nM
